# In patent publication US10912763B2 (priority 2010, dated 2021):
# Experiments:
# [1] = test system: acute post-operative pain following orthopedic surgery (bunionectomy); conditions: human, in vivo
# [2] = test system: painful diabetic neuropathy; conditions: human, in vivo
compound,measurement,setting,value
CN1CC[C@]23c4c5ccc(O)c4O[C@H]2[C@@H](O)C=C[C@H]3[C@H]1C5 [morphine],"TEAE ASAT increased, subjects",[1]; both,2.0%
same,"TEAE Dizziness, subjects",[1]; both,24.0%
same,"TEAE Hot flush, subjects",[1]; both,4.0%
same,"TEAE Hyperhidrosis, subjects",[1]; both,6.0%
same,"TEAE Nausea, subjects",[1]; both,66.0%
same,"TEAE Pruritus, subjects",[1]; both,2.0%
same,"TEAE Somnolence, subjects",[1]; both,16.0%
same,"TEAE Vomiting, subjects",[1]; both,40.0%
same,TEAE: ASAT increased,[1]; both,2.0%
same,TEAE: Dizziness,[1]; both,24.0%
same,TEAE: Hot flush,[1]; both,4.0%
same,TEAE: Hyperhidrosis,[1]; both,6.0%
same,TEAE: Nausea,[1]; both,66.0%
same,TEAE: Pruritus,[1]; both,2.0%
same,TEAE: Somnolence,[1]; both,16.0%
same,TEAE: Vomiting,[1]; both,40.0%
same,subjects with SAE's,[1]; both,0
same,subjects with TEAE(s),[1]; both,46 (92.0) n (%)
same,subjects with TEAE(s) (n (%)),[1]; both,46 (92.0) n (%)
same,"subjects with TEAE(s), related",[1]; both,42 (84.0) n (%)
same,"subjects with TEAE(s), serious",[1]; both,0 n (%)
same,subjects with TEAE(s): related (n (%)),[1]; both,42 (84.0) n (%)
same,subjects with TEAE(s): serious (n (%)),[1]; both,0 n (%)
same,total number of TEAE's,[1]; both,144 n
same,"total number of TEAE's, related",[1]; both,99 (68.8) n (%)
same,total number of TEAE's: related (n (%)),[1]; both,99 (68.8) n (%)
same,"LS mean Δplacebo, sum of pain intensity differences",[1],−7.12
same,"LS mean, sum of pain intensity differences",[1],42.01
same,"Sum of pain intensity differences, LS mean",[1],42.01
same,"Sum of pain intensity differences, LS mean Δplacebo",[1],−7.12
same,"sum of pain intensity differences, LS mean",[1],42.01
same,"sum of pain intensity differences, LS mean Δplacebo",[1],−7.12
same,Number of events leading to withdrawal,[2]; both,3
same,Number of serious TEAEs,[2]; both,0
same,Subjects with TEAEs (number),[2]; both,34
same,Subjects with TEAEs (percent),[2]; both,(94.4%)
same,TEAEs (%) Back pain,[2]; both,5.6%
same,TEAEs (%) Bacteriuria,[2]; both,13.9%
same,TEAEs (%) Cold sweat,[2]; both,0%
same,TEAEs (%) Constipation,[2]; both,25.0%
same,TEAEs (%) Dizziness,[2]; both,19.4%
same,TEAEs (%) Dyspepsia,[2]; both,2.8%
same,TEAEs (%) Fatigue,[2]; both,19.4%
same,TEAEs (%) Headache,[2]; both,25.0%
same,TEAEs (%) Hyperglycemia,[2]; both,2.8%
same,TEAEs (%) Nausea,[2]; both,47.2%
same,TEAEs (%) Peripheral oedema,[2]; both,0%
same,TEAEs (%) Pruritus,[2]; both,13.9%
same,TEAEs (%) Vision blurred,[2]; both,0%
same,TEAEs (%) Visual impairment,[2]; both,0%
same,TEAEs (%) Vomiting,[2]; both,52.8%
same,Total number of TEAEs,[2]; both,209
same,"Total number of TEAEs, at least possibly related (in brackets)",[2]; both,(156)
same,TEAEs (%) Oral discomfort,"[2]; both, po",0%
same,"Change from overall baseline (pain intensity, NRS), ANCOVA",[2],−2.5
same,"Change from overall baseline (pain intensity, NRS), descriptive statistics",[2],−2.27
same,"Change from period baseline (pain intensity, NRS), ANCOVA",[2],−2.2
same,"Change from period baseline (pain intensity, NRS), descriptive statistics",[2],−2.04
